Where two headings read alike, the source gives them in different places.
Columns and labels:
[1] = biological target: human μ opiate receptor (Homo sapiens, UniProt P35372); assay: μ opiate receptor binding assay with [3H]-naloxone, membrane preparation of CHO-K1 cells (WGA-SPA beads); settings: for MOP % Inhibition @1 μM / % inhibition (μ) [1 μM]: test concentration 1 μM
[2] = biological target: ORL1 receptor (Homo sapiens, UniProt P41146); settings: for ORL1 % Inhibition @ 1 μM / % inhibition (ORL1) [1 μM]: test concentration 1 μM
[3] = read-out: Ki (μ) mean [μm], mean
[4] = read-out: Ki (ORL1) mean [μm], mean

Protein sequences, listed by entry. Tags and fused reporters are not part of them. Lines headed by an entry give the natural chain unless they say otherwise; changes in a name come on top.
UniProt P35372, whole entry, looked up: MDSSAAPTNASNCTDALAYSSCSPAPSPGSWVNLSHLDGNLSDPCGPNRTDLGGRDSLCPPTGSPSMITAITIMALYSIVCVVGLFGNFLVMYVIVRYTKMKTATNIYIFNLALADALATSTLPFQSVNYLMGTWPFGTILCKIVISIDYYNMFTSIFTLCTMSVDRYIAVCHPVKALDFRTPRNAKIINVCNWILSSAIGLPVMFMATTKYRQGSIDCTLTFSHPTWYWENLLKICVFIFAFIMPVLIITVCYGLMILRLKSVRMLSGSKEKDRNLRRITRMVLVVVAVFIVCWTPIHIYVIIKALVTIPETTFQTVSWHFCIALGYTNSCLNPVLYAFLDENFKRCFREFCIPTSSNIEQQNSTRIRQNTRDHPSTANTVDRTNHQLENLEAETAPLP
UniProt P41146: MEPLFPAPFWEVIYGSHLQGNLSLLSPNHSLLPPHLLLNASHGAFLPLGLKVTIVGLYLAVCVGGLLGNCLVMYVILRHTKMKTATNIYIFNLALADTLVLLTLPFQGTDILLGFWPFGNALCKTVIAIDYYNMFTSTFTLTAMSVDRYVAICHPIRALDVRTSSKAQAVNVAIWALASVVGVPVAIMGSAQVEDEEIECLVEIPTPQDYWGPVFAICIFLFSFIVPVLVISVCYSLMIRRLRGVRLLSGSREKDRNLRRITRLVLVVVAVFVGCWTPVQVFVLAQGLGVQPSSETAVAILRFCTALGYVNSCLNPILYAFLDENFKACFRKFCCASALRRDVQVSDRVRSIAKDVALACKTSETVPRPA

Row | Compound | Ki ([1]; read-out: MOP Ki) [nM] | MOP % Inhibition @1 μM [1] [%] | Ki ([2]; read-out: ORL1 Ki) [nM] | ORL1 % Inhibition @ 1 μM [2] [%] | % inhibition (μ) [1 μM] [1] [%] | % inhibition (ORL1) [1 μM] [2] [%] | Ki [1, 3] [nM] | Ki [2, 4] [nM]
1 | CN[C@]1(c2ccccn2)CC[C@@]2(CC1)CC(=O)N(CCC(C)(C)C(N)=O)C2 | 1160 | 47 | 1500 | 20 |  |  |  | 
2 | CN(C)C1(c2cccs2)CCC2(CCN(Cc3ccncc3)C2=O)CC1 (stereo not shown) |  |  |  |  | 49.5 | 16 |  | 
3 | CN(C)C1(c2ccccc2)CCC2(CC1)CC(=O)N(CCCC(=O)NCC1CCS(=O)(=O)CC1)C2 (stereo not shown) | 390 | 74 | 440 | 48 |  |  |  | 
4 | CN(C)C1(c2cccs2)CCC2(CCN(C(=O)OC(C)(C)C)C2)CC1 (stereo not shown) |  |  |  |  | 98.5 | 79 | 2.5 | 13.5
5 | CN(C)[C@]1(c2ccccc2)CC[C@]2(CC1)CC(=O)N(CCC(C)(C)C(=O)N1CCS(=O)(=O)CC1)C2 | 21 | 89 | 150 | 56 |  |  |  | 
6 | CN(C)[C@]1(c2ccccc2)CC[C@]2(CC1)CC(=O)N(CC(=O)NCc1ccncn1)C2 | 85.5 | 94 | 71 | 74 |  |  |  | 
7 | CN(C)C1(c2ccccc2)CCC2(CC1)CC(=O)N(CC(C)(C)C(=O)N1CCS(=O)(=O)CC1)C2 (stereo not shown) | 69 | 94 | 83.5 | 75 |  |  |  | 
8 | CN(C)[C@]1(c2cnccn2)CC[C@]2(CC1)CC(=O)N(CCC(N)=O)C2 | 1050 | 46 |  | 10 |  |  |  | 
9 | COc1cnc(N2CC3(CCC(c4ccccc4)(N(C)C)CC3)CC2=O)nc1 (stereo not shown) | 295 |  | 170 |  |  |  |  | 
10 | CN(C)C1(c2ccccc2)CCC2(CC1)CC(=O)N(c1cccc(C#N)c1)C2 (stereo not shown) | 9.7 | 99 | 23 | 85 |  |  |  | 
11 | Cis-4-(8-Methylamino-3-oxo-8-pyridin-2-yl-2-azaspiro[4.5]decan-2-yl)-butyramide 2,2,2-trifluoro acetate |  | 27 |  | 4 |  |  |  | 
12 | CN(C)C1(c2cccs2)CCC2(CCN(Cc3ccc(F)cn3)C2)CC1 (stereo not shown) |  |  |  |  | 100 | 94.5 | 1.7 | 1.75
13 | CNC(=O)CCN1C[C@]2(CC[C@@](c3ccccc3)(N(C)C)CC2)CC1=O | 68.5 | 85 | 48 | 66 |  |  |  | 
14 | CNC(=O)CNC(=O)C(C)(C)CCN1CC2(CCC(c3ccccc3)(N(C)C)CC2)CC1=O (stereo not shown) | 147 | 88 | 43 | 81 |  |  |  | 
15 | CN(C)C1(c2cccs2)CCC2(CCN(C(=O)n3ccnc3)C2)CC1 (stereo not shown) |  |  |  |  | 96.5 | 81 | 19.5 | 47
16 | CN(C)C1(c2ccccc2)CCC2(CCN(C(=O)CCc3ccncc3)C2)CC1 (stereo not shown) | 27.5 | 98 | 7.8 | 87 |  |  |  | 
17 | Cis-3-(8-Methylamino-3-oxo-8-pyridin-2-yl-2-azaspiro[4.5]decan-2-yl)-propionamide |  | 19 |  | 4 |  |  |  | 
18 | CN(C)C1(c2ccc(F)s2)CCC2(CCN(C(=O)/C=C/c3ccccc3)C2)CC1 (stereo not shown) |  |  |  |  | 100 | 90.5 | 2.25 | 4.5
19 | CN(C)C1(c2ccc(Cl)s2)CCC2(CCN(C(=O)c3ccccc3)C2)CC1 (stereo not shown) |  |  |  |  | 95.5 | 68.5 | 10.7 | 64.5
20 | CN(C)C1(c2cccs2)CCC2(CCN(c3ccccc3)C2)CC1 (stereo not shown) |  |  |  |  | 100 | 94 | 2.8 | 8.35
21 | CN(C)[C@]1(c2ccccc2)CC[C@]2(CC1)CC(=O)N(CCC(C)(C)C(=O)NCC#N)C2 | 27.5 | 92 | 31 | 83 |  |  |  | 
22 | CN(C)[C@]1(c2ccccc2)CC[C@]2(CC1)CC(=O)N(CCC(C)(C)C(=O)NCCCO)C2 | 81 | 86 | 230 | 56 |  |  |  | 
23 | CN(C)[C@]1(c2ccccc2)CC[C@]2(CC1)CC(=O)N(CCC(C)(C)C(=O)NCCC(C)(C)O)C2 | 57.5 | 85 | 375 | 49 |  |  |  | 
24 | CN(C)[C@]1(c2ccccc2)CC[C@]2(CC1)CC(=O)N(CCCNC(=O)OC(C)(C)C)C2 | 31 | 98 | 210 | 60 |  |  |  | 
25 | CN(C)C1(c2ccccc2)CCC2(CCN(C(=O)c3ccccn3)C2)CC1 (stereo not shown) |  |  |  |  | 70.5 | 37.5 | 160 | 220
26 | CN(C)[C@]1(c2ccccc2)CC[C@]2(CC1)CC(=O)N(CC(=O)Nc1ccccn1)C2 | 5.4 | 99 | 61 | 49 |  |  |  | 

Row | Compound | Ki ([1]; read-out: MOP Ki) [nM] | MOP % Inhibition @1 μM [1] [%] | Ki ([2]; read-out: ORL1 Ki) [nM] | ORL1 % Inhibition @ 1 μM [2] [%] | % inhibition (μ) [1 μM] [1] [%] | % inhibition (ORL1) [1 μM] [2] [%] | Ki [1, 3] [nM] | Ki [2, 4] [nM]
27 | CN(C)C1(c2ccccc2)CCC2(CCN(C(=O)CCc3ccccn3)C2)CC1 (stereo not shown) | 5.1 | 100 | 6.7 | 76 |  |  |  | 
28 | Cis-3-(8-Dimethylamino-3-oxo-8-pyridin-2-yl-2-azaspiro[4.5]decan-2-yl)-2,2-dimethyl-propionamide 2,2,2-trifluoro acetate | 645 | 53 | 560 | 35 |  |  |  | 
29 | Cc1ccc(C2(N(C)C)CCC3(CCN(C(=O)c4ccccc4)C3)CC2)s1 (stereo not shown) |  |  |  |  | 92 | 70.5 | 26 | 77
30 | cis-2-(8-Dimethylamino-3-oxo-8-pyridin-2-yl-2-azaspiro[4.5]decan-2-yl)-acetic acid hydrochloride | 5960 | 13 |  | −3 |  |  |  | 
31 | COC(=O)C(C)(C)CCN1C[C@]2(CC[C@@](c3ccccc3)(N(C)C)CC2)CC1=O | 1.4 | 98 | 8.6 | 95 |  |  |  | 
32 | CN(C)C1(c2ccccc2)CCC2(CC1)CC(=O)N(CCC(C)(C)C(=O)NCC1CCS(=O)(=O)CC1)C2 (stereo not shown) | 27 | 87 | 26.5 | 56 |  |  |  | 
33 | CCCNC(=O)CN1C[C@]2(CC[C@@](c3ccccc3)(N(C)C)CC2)CC1=O | 1.8 | 99 | 2.4 | 95 |  |  |  | 
34 | CN(C)C1(CC2CCCCC2)CCC2(CCN(C(=O)c3ccccc3)C2)CC1 (stereo not shown) |  |  |  |  | 96.33 | 55.5 | 4.9 | 180
35 | CN(C)[C@]1(c2ccccc2)CC[C@]2(CC1)CC(=O)N(Cc1cccnc1)C2 | 12 | 95 | 37.5 | 63 |  |  |  | 
36 | CN(C)[C@]1(c2ccccc2)CC[C@@]2(CC1)CC(=O)N(c1cnccn1)C2 | 1540 |  | 345 |  |  |  |  | 
37 | CN(C)C1(c2ccccc2)CCC2(CC1)CC(=O)N(CCC1(C(N)=O)CCS(=O)(=O)CC1)C2 (stereo not shown) | 30 | 93 | 180 | 43 |  |  |  | 
38 | CN(C)C1(Cc2ccccc2)CCC2(CCN(Cc3ccccc3)C2)CC1 (stereo not shown) |  |  |  |  | 94.5 | 80 | 3.6 | 33
39 | CN(C)C1(c2cnccn2)CCC2(CC1)CC(=O)N(CC(N)=O)C2 (stereo not shown) | 2200 | 36 |  | 6 |  |  |  | 
40 | CN(C)[C@]1(c2cnccn2)CC[C@]2(CC1)CC(=O)N(CCCC(N)=O)C2 |  | 39 |  | 4 |  |  |  | 
41 | CN(C)[C@]1(c2ccccc2)CC[C@]2(CC1)CC(=O)N(CCCNC(=O)c1cccnc1)C2 | 65.7 | 93 | 126 | 57 |  |  |  | 
42 | CN(C)C1(c2ccccn2)CCC2(CC1)CC(=O)N(CCCC(=O)O)C2 (stereo not shown) |  | 6 |  | 2 |  |  |  | 
43 | Cc1cnoc1C(=O)NCCCN1C[C@]2(CC[C@@](c3ccccc3)(N(C)C)CC2)CC1=O | 76 |  | 180 |  |  |  |  | 
44 | CN(C)[C@]1(c2ccccc2)CC[C@]2(CC1)CC(=O)N(CCC(=O)NCC#N)C2 | 67 | 86 | 235 | 55 |  |  |  | 
45 | CN(C)C1(c2ccccc2)CCC2(CC1)CC(=O)N(CCC(C)(C)C(=O)NC1CCS(=O)(=O)CC1)C2 (stereo not shown) | 34 | 92 | 215 | 54 |  |  |  | 
46 | CN(C)[C@]1(c2ccccc2)CC[C@]2(CC1)CC(=O)N(CCCNS(=O)(=O)c1ccccn1)C2 | 26 | 99 | 96.5 | 67 |  |  |  | 
47 | CN1CCC(CC(=O)N2CCC3(CCC(c4cccs4)(N(C)C)CC3)C2)CC1 (single isomer, unassigned) |  |  |  |  | 88 | 32.5 |  | 
48 | CNC(=O)C(C)(C)CCN1C[C@]2(CC[C@@](c3ccccc3)(N(C)C)CC2)CC1=O | 36.5 | 96 | 41 | 74 |  |  |  | 
49 | CN(C)[C@]1(c2ccccc2)CC[C@@]2(CC1)CC(=O)N(Cc1ccccc1C(=O)O)C2 | 2320 | 27 |  | 17 |  |  |  | 
50 | CNC(=O)C(C)(C)NC(=O)CN1C[C@]2(CC[C@@](c3ccccc3)(N(C)C)CC2)CC1=O | 210 | 77 | 780 | 32 |  |  |  | 
51 | COc1ccc(N2CC3(CCC(c4ccccc4)(N(C)C)CC3)CC2=O)cn1 (stereo not shown) | 150 |  | 75 |  |  |  |  | 
52 | CN(C)[C@]1(c2ccccc2)CC[C@]2(CC1)CC(=O)N(CCCC(=O)N1CCS(=O)(=O)CC1)C2 | 150 | 82 | 530 | 44 |  |  |  | 
